# OPERA 2.9 data: water solubility values

Values as listed in the OPERA 2.9 repository of K. Mansouri.

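The numbers are reported measurements, compiled and curated for the OPERA QSAR suite. A listed value is a point estimate from one report or more. Method, purity and exact conditions of the single measurements are not given. Where a salt, mixture or single isomer is drawn, the source does not say that exactly this form was tested. Some upstream entries may be estimates or bounds without being marked so.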

Water solubility is log10 of mol/L, nominally at 25 °C; higher is more soluble. Cells with "n/a" have no entry in this list.

SMILES | name | log solubility (log10 mol/L)
CCCCCCCCC=CCCCCCCCC(=O)OCCCCCCCCCCCCCC | n/a | -6.981
CCCCCCCC/C=C\CCCCCCCCNCCCN | N-Oleyl-1,3-propanediamine | -3.955
O=C(c1ccccc1)C1CCCCC1 | Cyclohexylphenylketone | -4.015
Cc1ccc2c(c1)C(=O)C(C)C2 (stereo not drawn) | n/a | -2.324
CCCCCCC1CCCC(=O)O1 (stereo not drawn) | 6-Hexyltetrahydro-2H-pyran-2-one | -2.454
CC(CC(=O)OCCN1C(C)(C)CC(OC(=O)CC(C)CC(C)(C)C)CC1(C)C)CC(C)(C)C (stereo not drawn) | n/a | -9.081
CCC(CC)C1CC(C)(O)CCO1 (stereo not drawn) | 2H-Pyran-4-ol, 2-(1-ethylpropyl)tetrahydro-4-methyl- | -1.916
O=C([O-])CNCCNCC(=O)[O-].[Cl-].[Cl-].[Pt+4] | Dichloro(ethylenediaminediacetic acid)platinum | -2.949
Nc1nc(Cl)nc2c1ncn2[C@H]1C[C@H](O)[C@@H](CO)O1 | Cladribine | -1.653
Cc1cc(O)n(CCC(=O)O)c(=O)c1C#N | n/a | -1.444
COc1cc(Br)c(CN(C=O)CCc2ccc(O)cc2)cc1O | n/a | -5.047
CCCCCCCCC(CCCCCC)C(=O)O (stereo not drawn) | 2-Hexyldecanoic acid | -5.71
CC(C)COC(=O)c1ccc(O)cc1 | Isobutylparaben | -2.962
CCN1CCN(C(=O)N[C@@H](C(=O)N[C@@H]2C(=O)N3[C@@H]2SC(C)(C)[C@@H]3C(=O)O)c2ccccc2)C(=O)C1=O | n/a | -3.304
CC(C)(C)c1ccc(Nc2ccc(Nc3ccc(C(C)(C)C)cc3S(=O)(=O)[O-])c3c2C(=O)c2c(O)ccc(O)c2C3=O)c(S(=O)(=O)[O-])c1.[Na+].[Na+] | n/a | -2.886
Cc1ccc(O)c(C(C)C)c1 | 2-Isopropyl-p-cresol | -1.957
CCCCCCC(CCCC)COC(=O)c1ccccc1O (stereo not drawn) | 2-Butyloctyl 2-hydroxybenzoate | -7.033
CN(C)c1ncc2[nH]cnc2n1 | N,N-dimethyl-7H-purin-2-amine | -2.665
CCC(=O)C(=O)O | 2-Oxobutyric acid | 0.067
CCCCCNCCOC(=O)c1ccc(N)cc1 | Naepaine | -3.27
COc1cc(Cl)c(Cl)cc1O | 4,5-Dichloroguaiacol | -2.53
O=C1CCCCCCCCCCC1 | Cyclododecanone | -3.704
Cc1cc(C#N)c(Nc2ccccc2[N+](=O)[O-])s1 | 5-Methyl-2-((2-nitrophenyl)amino)-3-thiophenecarbonitrile | -5.263
Cc1onc(-c2ccccc2Cl)c1C(=O)N[C@@H]1C(=O)N2[C@@H]1SC(C)(C)[C@@H]2C(=O)O | Cloxacillin | -4.5
CCC(C(=O)O)C(C)(C)C(=O)O (stereo not drawn) | 3-Ethyl-2,2-dimethylsuccinic acid | -0.673
CC(=O)Nc1ccc(Cl)c(Cl)c1 | 3,4-Dichloroacetanilide | -3.25
CCCCCCN1CC(C(=O)O)CC1=O (stereo not drawn) | 1-hexyl-5-oxopyrrolidine-3-carboxylic acid | -1.456
NS(=O)(=O)c1cc2c(cc1Cl)N=C(CSCc1ccccc1)NS2(=O)=O | Benzthiazide | -4.525
CC(C)(C)N(Sc1nc2ccccc2s1)Sc1nc2ccccc2s1 | n/a | -8.363
CCN(CC)c1ccc2cc(-c3nc4cc(S(N)(=O)=O)ccc4o3)c(=O)oc2c1 | n/a | -7.831
Cn1c(=O)[nH]c2[nH]c(=O)n(C)c2c1=O | 1,7-Dimethyluric acid | -2.441
O=C1NC(=O)c2ccc3c4ccc5c6c(ccc(c7ccc1c2c73)c64)C(=O)NC5=O | Pigment Violet 29 | -7.571
CCC/C=C/CCCCCCCOC(C)=O | (E)-8-Dodecen-1-yl acetate | -4.611
Cc1ccc(/N=N/c2c(O)c(C(=O)[O-])cc3ccccc23)c(S(=O)(=O)[O-])c1.[Na+].[Na+] | C.I. Pigment Red 57 | -2.061
CCn1c(=O)c2c(nc(/C=C/c3ccc(OC)c(OC)c3)n2C)n(CC)c1=O | Istradefylline | -5.886
Fc1ccc(C2=CCC(C3CCC4(CC3)OCCO4)CC2)cc1F (stereo not drawn) | n/a | -7.144
NS(=O)(=O)c1cc2c(s1)C(=O)CCS2 | 7-Oxo-6,7-dihydro-5H-thieno[3,2-b]thiopyran-2-sulfonamide | -3.494
C=CC(=O)OCCN(CC)S(=O)(=O)C(F)(F)C(F)(F)C(F)(F)C(F)(F)C(F)(F)C(F)(F)C(F)(F)C(F)(F)F | 2-[Ethyl[(heptadecafluorooctyl)sulfonyl]amino]ethyl acrylate | -5.847
COCOC | Dimethoxymethane | 0.48
CCCCCCCCCC(C)/C=C(/C(C)=O)C(=O)OCC (stereo partly drawn) | n/a | -6.87
NS(=O)(=O)c1cc2c(cc1Cl)NC(C1CC3C=CC1C3)NS2(=O)=O (stereo not drawn) | Cyclothiazide | -3.145
CCCCCCCCCCCCOC(=O)C(C)O (stereo not drawn) | Propanoic acid, 2-hydroxy-, dodecyl ester | -1.41
CC(C)Cc1ccccc1 | Isobutylbenzene | -4.12
CCOc1ccccc1NC(=O)c1cc2ccccc2c(N=Nc2ccc(C(N)=O)cc2)c1O | C.I. Pigment Red 170 | -7.582
c1ccc(N2CCSCC2)cc1 | 4-phenylthiomorpholine | -1.254
CC(C)(C)c1cc(CCC(=O)OCCCCCCOC(=O)CCc2cc(C(C)(C)C)c(O)c(C(C)(C)C)c2)cc(C(C)(C)C)c1O | n/a | -8.106
O=c1[nH]c(=O)c2[nH]c(=O)c(=O)[nH]c2[nH]1 | Tetrahydroxypteridine | -4.057
CCO[Si](CC(C)CC(C)(C)C)(OCC)OCC (stereo not drawn) | Silane, triethoxy(2,4,4-trimethylpentyl)- | -6.243
CCN(CC)C(C)=O | Diethylacetamide | -0.331
Nc1ccc(S(=O)(=O)Nc2cnccn2)cc1 | Sulfapyrazine | -3.7

7 of these entries, quoted again:

{"smiles": "CCC(CC)C1CC(C)(O)CCO1", "stereo": "stereo not drawn", "name": "2H-Pyran-4-ol, 2-(1-ethylpropyl)tetrahydro-4-methyl-", "log solubility (log10 mol/L)": "-1.916"}
{"smiles": "CCCCCCC(CCCC)COC(=O)c1ccccc1O", "stereo": "stereo not drawn", "name": "2-Butyloctyl 2-hydroxybenzoate", "log solubility (log10 mol/L)": "-7.033"}
{"smiles": "c1ccc(N2CCSCC2)cc1", "name": "4-phenylthiomorpholine", "log solubility (log10 mol/L)": "-1.254"}
{"smiles": "CCC(=O)C(=O)O", "name": "2-Oxobutyric acid", "log solubility (log10 mol/L)": "0.067"}
{"smiles": "CN(C)c1ncc2[nH]cnc2n1", "name": "N,N-dimethyl-7H-purin-2-amine", "log solubility (log10 mol/L)": "-2.665"}
{"smiles": "O=C([O-])CNCCNCC(=O)[O-].[Cl-].[Cl-].[Pt+4]", "name": "Dichloro(ethylenediaminediacetic acid)platinum", "log solubility (log10 mol/L)": "-2.949"}
{"smiles": "CCN(CC)C(C)=O", "name": "Diethylacetamide", "log solubility (log10 mol/L)": "-0.331"}